As usually defined, the inhibition is the drop in the measured response relative to a control, in per cent.

The chains behind the UniProt entries cited, without tags or fusion partners.
UniProt P02675, whole entry, looked up: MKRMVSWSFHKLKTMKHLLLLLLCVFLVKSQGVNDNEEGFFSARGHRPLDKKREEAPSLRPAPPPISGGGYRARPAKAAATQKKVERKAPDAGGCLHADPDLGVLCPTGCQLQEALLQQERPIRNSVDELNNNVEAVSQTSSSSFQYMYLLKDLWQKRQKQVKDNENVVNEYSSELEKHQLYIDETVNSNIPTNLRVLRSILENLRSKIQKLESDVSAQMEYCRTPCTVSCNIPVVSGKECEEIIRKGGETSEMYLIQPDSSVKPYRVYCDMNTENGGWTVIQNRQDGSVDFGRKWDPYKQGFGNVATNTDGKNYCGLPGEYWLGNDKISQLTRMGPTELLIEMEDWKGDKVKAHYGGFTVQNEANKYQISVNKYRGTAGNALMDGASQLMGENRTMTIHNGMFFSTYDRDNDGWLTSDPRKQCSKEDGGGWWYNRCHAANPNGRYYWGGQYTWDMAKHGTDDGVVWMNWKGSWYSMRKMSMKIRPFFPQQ

The entries are a selection whose mix differs from that of the whole data set. Some salts or complexes appear as unconnected parts, following the source record. Calls of active or inactive are those of the source.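 The calls were made as follows: active = inhibition above a per-campaign cutoff: mean of compounds within control limits plus 3 SD (cut at about 15% in these data); inactive = the rest.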

This test addresses Fibrinogen beta chain (Homo sapiens) (UniProt P02675). The test can be described thus: inhibitors of Tn6 peptide binding to fibrin DD(E), primary screen, biochemical, fluorescence polarization, human fibrin, Tn6 probe (AID 720509).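 Also: 0% = median of all compound wells on the plate and 100% = blocking peptide control.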 The settings on record: Fibrin DD(E) TRITC-Tn6 fluorescence polarization displacement; at 8.3 µM; stronger effect = higher value. For orientation: Fluorescence polarisation rises when a labelled molecule tumbles more slowly, as on binding a larger partner.
Turning to `COc1ccccc1-c1ccccn1.O=[N+]([O-])c1cc([N+](=O)[O-])c(O)c([N+](=O)[O-])c1`, the inhibition is inactive: 1.29%.

As for `CCN(CC)CCCOC(=O)C(O)(c1ccccc1)c1ccccc1`, the inhibition is inactive: -0.7%.

For the molecule `COc1ccccc1OP(C)(=O)Nc1ccc(C)cc1` (centres undefined), the inhibition was inactive: -4.63%.

Take `Cc1ccc(NP(C)(=O)Oc2ccccc2)c(C)c1` (centres undefined): the inhibition is inactive: 5.24%.

For the molecule `CCOC(=O)c1ccc(NP(C)(=O)Oc2ccccc2)cc1` (centres undefined), the inhibition is inactive: -2.43%.

On to `Cc1cc(C)cc(OP(C)(N)=O)c1` (centres undefined), for which the inhibition was inactive: 1%.

Turning to `COc1ccccc1OP(C)(=O)Nc1cc(Cl)ccc1C` (centres undefined), the inhibition is inactive: -5.95%.

For `COc1ccc(OP(C)(=O)Nc2cccc(F)c2)cc1` (centres undefined), the inhibition is inactive: 4.73%.

With `O=[N+]([O-])c1cc([N+](=O)[O-])c(Nc2cccnc2)c([N+](=O)[O-])c1`, the inhibition was inactive: 2.17%.

Consider `O=[N+]([O-])c1ccc2c(c1)C=Nc1ccccc1O2`, for which the inhibition is inactive: -6.87%.

As to `CC(C)(C)c1ccc(OP(C)(=O)Nc2ccc(SC(F)(F)F)cc2)cc1` (centres undefined), the inhibition is inactive: -0.34%.

In the case of `Cc1cccc(C)c1OP(C)(N)=O` (centres undefined), the inhibition is inactive: 0.97%.

Consider `CP(=S)(Nn1cnnc1)Oc1ccccc1` (centres undefined), for which the inhibition was inactive: 3.77%.

On to `CP(=O)(Nc1ccccc1Br)Oc1ccccc1` (centres undefined), for which the inhibition was inactive: -4.06%.

For the molecule `COc1ccccc1OP(C)(=O)Nc1ccccc1` (centres undefined), the inhibition was inactive: 0.25%.

For the molecule `O=[N+]([O-])c1cc([N+](=O)[O-])c(O)c([N+](=O)[O-])c1.c1ccc(Oc2ccncc2)cc1`, the inhibition was inactive: -2.53%.

Turning to `CCOC(=O)c1ccc(NP(C)(=O)Oc2ccc(OC)cc2)cc1` (centres undefined), the inhibition was inactive: 5.28%.

On to `CCOP(C)(=S)SCC(=O)NC(C)C(=O)O` (centres undefined), for which the inhibition is inactive: 7.95%.

Consider `CP(=O)(Nc1ccccn1)Oc1ccc(Cl)cc1` (centres undefined), for which the inhibition is inactive: -3.74%.

As to `CP(=O)(Nc1ccc(SC(F)(F)F)cc1)Oc1ccc(Cl)cc1` (centres undefined), the inhibition was inactive: -2.79%.

Turning to `Cc1cccc(C)c1OP(C)(=O)Nc1ccc(SC(F)(F)F)cc1` (centres undefined), the inhibition was inactive: -4.05%.

On to `CP(=O)(Oc1ccccc1)OC(c1ccccc1)C(F)(F)F` (centres undefined), for which the inhibition is inactive: 2.56%.

As for `CCc1ccc(OP(C)(=O)N2CCN(c3ccc([N+](=O)[O-])cc3)CC2)cc1` (centres undefined), the inhibition is inactive: -6.09%.

Take `CP(=O)(NC(=O)Nc1ccccc1)Oc1ccccc1` (centres undefined): the inhibition was inactive: 0.3%.

In the case of `Cc1cc(C)cc(OP(C)(=O)Nc2ccc(SC(F)(F)F)cc2)c1` (centres undefined), the inhibition is inactive: 8.81%.

On to `O=[N+]([O-])c1cc([N+](=O)[O-])c(-c2cnn(-c3ccccc3)c2)c([N+](=O)[O-])c1`, for which the inhibition is inactive: -3.15%.

Consider `Cc1nc2ccc3ccccc3c2s1.O=[N+]([O-])c1cc([N+](=O)[O-])c(O)c([N+](=O)[O-])c1`, for which the inhibition was inactive: -2.19%.

Turning to `O=[N+]([O-])c1cc([N+](=O)[O-])c(-n2nnc3ccccc32)c([N+](=O)[O-])c1`, the inhibition was inactive: 1.83%.

Take `CN(Cc1cccnc1)C(=O)COc1ccc(Cl)c(Cl)c1.O=[N+]([O-])c1cc([N+](=O)[O-])c(O)c([N+](=O)[O-])c1`: the inhibition was inactive: 2.23%.

On to `CN1CCCCC1COC(=O)C1(O)c2ccccc2CCc2ccccc21` (centres undefined), for which the inhibition is inactive: -0.57%.

As for `COc1ccccc1OP(C)(=O)Nc1c(C)cccc1C` (centres undefined), the inhibition was inactive: 2.86%.

On to `COc1ccc(-c2ccccn2)cc1.O=[N+]([O-])c1cc([N+](=O)[O-])c(O)c([N+](=O)[O-])c1`, for which the inhibition is inactive: -6.13%.

As to `CP(=O)(Nc1ccc(SC(F)(F)F)cc1)Oc1ccccc1` (centres undefined), the inhibition was inactive: 6.61%.

With `CCCOc1ccc(NP(C)(=O)Oc2ccc(Cl)cc2)cc1` (centres undefined), the inhibition is inactive: 3.4%.

Consider `O=[N+]([O-])c1cc([N+](=O)[O-])c(Nc2nnnn2CCO)c([N+](=O)[O-])c1`, for which the inhibition is inactive: -1.13%.

As for `CCOC(=O)C(CC)C1=NC(C)(C)Cc2ccccc21.O=[N+]([O-])c1cc([N+](=O)[O-])c(O)c([N+](=O)[O-])c1` (centres undefined), the inhibition was inactive: 10.3%.

`CC1=NCCc2c1[nH]c1ccccc21.O=[N+]([O-])c1cc([N+](=O)[O-])c(O)c([N+](=O)[O-])c1`: the inhibition is inactive: -2%.

As to `O=C(O)c1cccc(Nc2c([N+](=O)[O-])cc([N+](=O)[O-])cc2[N+](=O)[O-])c1`, the inhibition was inactive: 7.51%.

Take `Cc1ccc(C)c(NP(C)(=O)Oc2ccccc2)c1` (centres undefined): the inhibition was inactive: 4.95%.

For `CP(=O)(Nc1cccc(Br)c1)Oc1ccccc1` (centres undefined), the inhibition was inactive: -5.79%.

On to `Cc1cc(C)cc(OP(C)(=O)Nc2ccccn2)c1` (centres undefined), for which the inhibition was inactive: -5.67%.

For the molecule `COc1ccccc1OP(C)(=O)Nc1cccc(Br)c1` (centres undefined), the inhibition is inactive: 1.96%.

Regarding `CCOC(=O)c1ccc(NP(C)(=O)Oc2cc(C)cc(C)c2)cc1` (centres undefined), the inhibition is inactive: 1.79%.

Consider `Cc1cc(C)cc(OP(C)(=O)Nc2ccc(C)cc2C)c1` (centres undefined), for which the inhibition was inactive: -5.13%.

Take `O=C(OC1CN2CCC1CC2)c1ccc([N+](=O)[O-])cc1` (centres undefined): the inhibition was inactive: 3.22%.

For the molecule `O=C(OCCN1CCN(CCOCc2ccccc2)CC1)C(O)(c1ccccc1)c1ccccc1`, the inhibition was inactive: -3.64%.

For `COc1ccc2c(c1O)-c1c(O)c(OC)cc3c1[C@H](C2)[N+](C)(C)CC3.O=[N+]([O-])c1cc([N+](=O)[O-])c([O-])c([N+](=O)[O-])c1[O-]`, the inhibition is inactive: 3.03%.

As for `O=[N+]([O-])c1cc([N+](=O)[O-])c(Nc2ccc(Cl)cc2)c([N+](=O)[O-])c1`, the inhibition was inactive: 1.92%.

On to `CP(=O)(Nc1ccccc1F)Oc1ccccc1` (centres undefined), for which the inhibition is inactive: -2.4%.

For `CC(C)c1ccc(OP(C)(=O)Nc2ccc(SC(F)(F)F)cc2)cc1` (centres undefined), the inhibition is inactive: -0.17%.

On to `Cc1c([N+](=O)[O-])cc([N+](=O)[O-])c(Br)c1[N+](=O)[O-]`, for which the inhibition was inactive: -2.58%.

`CCN(CC)CCCOC(=O)C(O)(c1ccccc1)C1CCCCC1` (centres undefined): the inhibition is inactive: 0.79%.

`CP(=O)(Nc1ccccc1)Oc1ccc(F)cc1` (centres undefined): the inhibition is inactive: -3.11%.

On to `O=[N+]([O-])c1cc([N+](=O)[O-])c(OC2CCCCC2O)c([N+](=O)[O-])c1` (centres undefined), for which the inhibition is inactive: -2.54%.

In the case of `CCCCCOc1ccc(NP(C)(=O)Oc2ccc(Cl)cc2Cl)cc1` (centres undefined), the inhibition was inactive: -10.4%.

With `CCN(CC)CCCNc1ccccc1[N+](=O)[O-].O=[N+]([O-])c1cc([N+](=O)[O-])c(O)c([N+](=O)[O-])c1`, the inhibition is inactive: -1.5%.

Regarding `CCOC(=O)c1ccc(NP(C)(=O)Oc2ccc(F)cc2)cc1` (centres undefined), the inhibition is inactive: -1.71%.

Regarding `COc1ccc(OP(C)(=O)Nc2ccc(SC(F)(F)F)cc2)cc1` (centres undefined), the inhibition was inactive: 0.39%.

As to `O=[N+]([O-])c1ccc(OP2(=O)COCCO2)cc1` (centres undefined), the inhibition is inactive: -3.05%.

In the case of `O=[N+]([O-])c1cc([N+](=O)[O-])c(NCC2CCS(=O)(=O)C2)c([N+](=O)[O-])c1` (centres undefined), the inhibition was inactive: -8.99%.

Turning to `Cc1cc(-c2cccc3ccccc23)c(C)cn1.O=[N+]([O-])c1cc([N+](=O)[O-])c(O)c([N+](=O)[O-])c1`, the inhibition is inactive: -5.06%.

With `Cc1c(C(c2ccc3c(c2)OCO3)c2c(C)n(C)n(-c3ccccc3)c2=O)c(=O)n(-c2ccccc2)n1C.O=[N+]([O-])c1cc([N+](=O)[O-])c(O)c([N+](=O)[O-])c1`, the inhibition was inactive: 1.5%.

Regarding `COc1ccc(OP(C)(=O)Nc2cccc(Br)c2)cc1` (centres undefined), the inhibition is inactive: -8.14%.

Take `CN(C)CCOC(=O)C(O)(c1ccccc1)C1CCCCC1` (centres undefined): the inhibition is inactive: -7.77%.

As for `COc1ccc(NP(C)(=O)Oc2ccccc2OC)cc1` (centres undefined), the inhibition was inactive: 4.06%.

In the case of `CP(=O)(Nc1ccc2c(c1)OCCO2)Oc1ccccc1` (centres undefined), the inhibition was inactive: -2.34%.

For `Cc1ccccc1NP(C)(=O)Nc1ccccc1C`, the inhibition was inactive: 2.14%.

Regarding `O=[N+]([O-])c1cc([N+](=O)[O-])c(C(F)(F)F)c([N+](=O)[O-])c1O`, the inhibition is inactive: -2.18%.

Consider `CP(=O)(Nc1ccc(SC(F)(F)F)cc1)Oc1ccc(F)cc1` (centres undefined), for which the inhibition is inactive: -3.46%.

Consider `CCOP(C)(=S)SCC(=O)NC(C)(CC)C(=O)O` (centres undefined), for which the inhibition is inactive: 1.79%.

Take `CCOP(=O)(CC)OCC`: the inhibition is inactive: -1.21%.

On to `CC(C)(C)c1ccc(OP(C)(=O)O)cc1`, for which the inhibition was inactive: 2.14%.

Regarding `COc1ccccc1OP(C)(=O)Nc1ccccc1Br` (centres undefined), the inhibition was inactive: 5.33%.

As to `CP(=O)(Nc1ccc(Cl)cc1)Oc1ccc(F)cc1` (centres undefined), the inhibition is inactive: -0.54%.

On to `CN(C)C(=O)c1c([N+](=O)[O-])cc([N+](=O)[O-])cc1[N+](=O)[O-]`, for which the inhibition is inactive: 8.41%.

For `CCN(CC)CC(O)COC(=O)C(O)(c1ccccc1)C1CCCCC1` (centres undefined), the inhibition is inactive: -3.71%.

For `COc1ccc(OP(C)(=O)Nc2ccc(Br)cc2)cc1` (centres undefined), the inhibition was inactive: 2.99%.

As to `COc1ccccc1OP(C)(=O)Nc1c(C)n(C)n(-c2ccccc2)c1=O` (centres undefined), the inhibition was inactive: 2.9%.

As for `O=C(OCCCN1CCCC1)C(O)(c1ccccc1)C1CCCCC1` (centres undefined), the inhibition is inactive: -1.82%.

In the case of `CP(=O)(Oc1ccccc1)N1CCOC1=O` (centres undefined), the inhibition is inactive: 4.45%.

As for `CCc1ccc(OP(C)(=O)Nc2cccnc2)cc1` (centres undefined), the inhibition was inactive: -1.07%.

With `Nc1ccc2c(ccc3cccnc32)n1.O=[N+]([O-])c1cc([N+](=O)[O-])c(O)c([N+](=O)[O-])c1`, the inhibition was inactive: 5.53%.

In the case of `CCOC(=O)c1ccc(NP(C)(=O)Oc2ccc(Cl)cc2)cc1` (centres undefined), the inhibition was inactive: -0.35%.

With `CP(=O)(OC12CC3CC(CC(C3)C1)C2)OC12CC3CC(CC(C3)C1)C2`, the inhibition was inactive: 2.68%.

Turning to `CP(=O)(OCCOc1ccccc1)OCCOc1ccccc1`, the inhibition was inactive: -4.52%.

`CP(=O)(Nc1ccc(Cl)cc1Cl)Oc1ccccc1` (centres undefined): the inhibition was inactive: -4.01%.

For the molecule `CCCCCCCCCCCCCCCC1C[N+](C)(C)CCOP(C)(=O)O1` (centres undefined), the inhibition is inactive: 0.52%.

For `O=C1C(O)=C([N+](=O)[O-])C(=O)C(O)=C1[N+](=O)[O-]`, the inhibition is inactive: 1.04%.

As to `Cc1cc(C)cc(OP(C)(=O)Nc2cccc(C(F)(F)F)c2)c1` (centres undefined), the inhibition is inactive: 1.86%.

As to `COc1ccccc1OP(C)(=O)Nc1ccc(C)c(C)c1` (centres undefined), the inhibition was inactive: 1.43%.

For the molecule `COc1ccc(OP(C)(=O)Nc2ccccc2Br)cc1` (centres undefined), the inhibition was inactive: 0.46%.

On to `O=[N+]([O-])c1cc([N+](=O)[O-])c(Nc2ccccn2)c([N+](=O)[O-])c1`, for which the inhibition was inactive: -5.54%.

For `Cc1c(NP(C)(=O)Oc2ccc(C(C)C)cc2)c(=O)n(-c2ccccc2)n1C` (centres undefined), the inhibition was inactive: -9.16%.

For the molecule `CP(=O)(Nc1ccccn1)Oc1ccccc1` (centres undefined), the inhibition is inactive: -0.04%.

Turning to `COc1ccccc1OP(C)(=O)Nc1ccc(C)cc1C` (centres undefined), the inhibition is inactive: 11%.

Regarding `CCc1ccc(OP(C)(=O)O)cc1`, the inhibition was inactive: 6.76%.

Consider `COc1ccccc1OP(C)(=O)Nc1ccc(Br)cc1` (centres undefined), for which the inhibition is inactive: 5.23%.

Turning to `COc1ccc(OP(C)(=O)Nc2ccccn2)cc1` (centres undefined), the inhibition is inactive: 0.85%.

Turning to `CN(C)CCOC(=O)C(O)(c1ccccc1)C1CCCC1` (centres undefined), the inhibition was inactive: 5.52%.

The values above are taken from PubChem BioAssay AID720509 (The Scripps Research Institute Molecular Screening Center, 2013).
